## Binding of CDR-mutated scFvs to a peptide of the spike HR2 region

Values reported by Li et al. 2023, doi:10.1038/s41467-023-39022-2 (FLAb copy).

The target is the same throughout: PDVDLGDISGINAS, from the HR2 region of SARS-CoV-2 spike.

Parent: Ab-14, a human scFv built as VH, the linker GGGGSGGGGSGGGGS, VL. Only the CDRs of the heavy chain vary.
VH: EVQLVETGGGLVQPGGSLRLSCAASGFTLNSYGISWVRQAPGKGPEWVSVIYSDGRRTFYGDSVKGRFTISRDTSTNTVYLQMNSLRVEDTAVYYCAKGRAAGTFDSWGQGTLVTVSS
VL: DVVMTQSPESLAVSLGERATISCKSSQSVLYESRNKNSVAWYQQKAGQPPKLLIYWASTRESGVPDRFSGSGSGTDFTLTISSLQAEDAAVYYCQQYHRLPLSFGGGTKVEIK

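Designed CDR sequences, proposed from the first random library and measured here. Several design methods are mixed in this list. The assay is AlphaSeq: two haploid yeast populations carry antibody and antigen on their surface. The frequency of each diploid, read from paired DNA barcodes, reflects how well the two displayed proteins bind. Read counts were normalised to the haploid input and turned into Kd by a linear fit to BCL2-family pairs of known affinity, for each replicate. Each pool was mated in six replicate cultures.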

Each variant is given by its three heavy chain CDRs, as the data file delimits them; those of the parent are GFTLNSYGIS, VIYSDGRRTFYGDSVK, GRAAGTFDS.
Scale: log10 of Kd in nM, estimated from mating counts; low values are strong binders.
"ND" marks a missing value. The strain was present, yet no cells mated with the target were sequenced in that replicate, which points to weak or no binding.
The range of this assay differs from that of the first round, and the authors advise against merging the two.
Of ten entries with the parent sequence, four were seen in most replicates (averages 0.34 to 2.37), three in one and three in none, so single entries are noisy.
The authors' rule: three or more of the six replicates give a measured affinity, fewer mean a poor binder.
Nonspecific signal, from three strains lacking the peptide, appeared in 1% of pairings of all heavy chain designs, centred on 2.08 (5% of these signals below 0.84); values are not corrected for it.

CDR-H1 | CDR-H2 | CDR-H3 | log10 Kd (nM) by replicate
GFNLDEYGIS | VIYADGKRSMYADKVK | GVVGDFMMD | ND ND ND ND ND ND
GFDINEYGIS | VMYADGSRSVYQDKVK | GFQSGTFDT | ND 0.52 0.71 0.61 2.62 0.55
GFDLDEYGIS | VIYADGARKAVQNQFK | GGQAGTFVN | ND ND ND 2.22 ND ND
GFSLNSYGIS | VIYSDGRRTFYADSVK | GEAAGTFDL | 1.19 0.60 0.89 0.52 0.89 1.06
GFSLNEYGIS | VIYSDGRRTFYGDSVK | GQTAGTFDT | 0.68 0.97 0.45 0.19 0.16 0.33
GFNLNEYGIS | VIYADGRRTFYSDSVK | GETGGTFDV | ND ND ND ND ND 1.86
GFDLNEYGIS | VIYADGVRTVYADSVK | GNVAGTFDQ | -0.54 -0.32 -0.63 -0.69 -0.87 -0.43
GFTLNSYGIS | VIYSDGFRTAYGDSVK | GRAAGTFDS | ND 0.56 ND -0.01 ND 0.87
GFRLNSYGIS | VIYSDGRRTFYKDSVK | GQLAGTFDS | ND ND ND ND ND ND
GFDLDEYGIS | VIYADGRRTFYSDNVK | GEVAGTFDI | -0.41 -0.33 -0.71 -0.14 -0.62 -0.22
GFTLNSYGIS | VIYSDGRRTQYSDSVK | GRAAGTFDS | ND ND ND ND ND ND
GFELNSYGIS | VIYSDGRRTFYVDSVK | GKVAGTFDS | ND ND ND ND ND ND
GFDLNDYGIS | VIYADGRRTAYVDSVK | GEVAGTFDS | -0.33 -0.29 0.02 -0.26 -0.49 -0.17
GFTLNEYGIS | VIYSDGRRTFPTDSVK | GYFAGYMDS | ND ND ND ND ND ND
GETLNNYGIS | VIYSDGLRTFYSDSVK | GRAAFTFDS | ND ND ND ND ND ND
GFDLNEYGIS | VIYADGSRTAYADSVK | GNNAGTFDL | -0.20 -0.35 -0.32 -0.30 -0.38 0.07
GFGLNSYGIS | VIYSDGRRTFYDDSVK | GQTAGTFDS | 0.13 0.10 -0.11 0.23 -0.14 0.34
GFVLNSYGIS | VIYSDGRRTFYKDSVK | GEAAGTFDS | ND ND 3.14 1.92 3.48 ND
GQDLEEFGIS | VIYADGMRAAYADNVK | GVKVGNVTI | ND ND ND ND ND ND
GFTLNSYGIS | VIYSDGRRTFYIDDVK | GEAAGTFDS | 1.88 0.79 0.67 0.37 0.67 1.52
GFDLDEYGIS | VIYADGRRTFYADSVK | GTNAGTFDQ | -0.60 -0.34 -0.64 -0.86 -0.92 -0.25
GFNLDEYGIS | VIYADGRRTAYADSVK | GEHAGTFDT | 0.13 0.17 -0.21 -0.10 -0.24 -0.15
SFDLNSYGIS | VIYSDGRRTFYADSVK | GQTAGTFDS | ND -0.79 0.36 -0.40 -0.30 0.54
GFTLNSYGIS | VIYSDGRRTMYGDSVK | GRNAGTFDS | -0.10 -0.38 -0.87 -0.41 -0.37 0.58
GFTLNQYGIS | VIYSDGRRTFYSDSVK | GRAAVTFDS | ND ND ND ND ND ND
GFTLNSYGIS | VIYHDGHRTFESDSVK | GRAGGTFSS | 2.92 ND ND ND ND ND
GYDIEEMGIS | VIYADGKRNAYANSVK | GKWAGAFVD | ND ND ND ND ND ND
GFKLDEYGIS | VIYADGCRTAYVDSVK | GGTTFSKFV | ND ND ND ND ND ND
GYDLDDYGIS | VIYADGKRTSYAENVK | GLIGGSLSN | ND 1.32 0.43 1.35 1.48 1.85
GFQLDEVGIS | VIYADGARTAYKSKVK | GGNGDSFDI | ND ND ND ND ND ND
GFKLLSYGIS | VIYSDGRRTFYSDSVK | GRAIGTFDS | ND ND ND ND ND ND
GFTLNEYGIS | VIYSDGRRTFYDDSVK | GRAAGRFDS | ND ND 1.51 ND ND ND
GFDLNEYGIS | VIYADGMRTFYTDNVK | GQNAGTFDS | -0.17 -0.87 -0.77 -0.85 -0.94 -0.41
GQDLNEYGIS | VIYADGLRTAYTENVK | GNQSDFDSG | ND ND ND ND ND ND
GFDLDEYGIS | VIYADGQRTAYTDSVK | GNVAGTFDQ | -0.72 -0.55 -0.92 -1.06 -0.56 -1.06
GFTLNSYGIS | VIISDGRRTFYGDSVK | GRAIGTFDS | ND ND ND ND ND ND
TFTLNSYGIS | VIYSDGRRTFYDDSVK | GRAAGTFDS | 2.57 3.07 ND 2.31 2.32 1.96
GFTLNSYGIS | VIYSDGRRTFYGDSVR | GRIAGTFSS | 0.86 1.46 1.01 ND ND 1.32
GFTLNDYGIS | VIYSDGRRTFYGDSVK | GMAAGTFDL | 0.00 -0.48 -0.49 0.60 -0.65 1.06
GPGLQEYGIS | VIYADGIRSAYTDDVK | GQNAGHFLE | ND ND ND ND ND ND
GKSIEEYGIS | VIYADGQRNAYAETVK | GTNGGVFSY | ND ND ND ND ND ND
GFTLNSYGIS | VIYSDGRRTQYGDSVK | GRAAGTFDT | 0.97 1.62 0.81 0.39 0.48 0.93
GFDLNEYGIS | VIYADGRRTFYTDSVK | GNNAGTFDM | -0.21 -0.70 -0.97 -0.90 -0.68 -0.74